The source of these data is patent publication US20220348563A1, “KDM INHIBITORS AND USES THEREOF” (DANA-FARBER CANCER INSTITUTE, INC., priority 2019, published 2022).

Protein sequences, listed by entry. Tags and fused reporters are not part of them.
UniProt Q9Y4C1, whole entry: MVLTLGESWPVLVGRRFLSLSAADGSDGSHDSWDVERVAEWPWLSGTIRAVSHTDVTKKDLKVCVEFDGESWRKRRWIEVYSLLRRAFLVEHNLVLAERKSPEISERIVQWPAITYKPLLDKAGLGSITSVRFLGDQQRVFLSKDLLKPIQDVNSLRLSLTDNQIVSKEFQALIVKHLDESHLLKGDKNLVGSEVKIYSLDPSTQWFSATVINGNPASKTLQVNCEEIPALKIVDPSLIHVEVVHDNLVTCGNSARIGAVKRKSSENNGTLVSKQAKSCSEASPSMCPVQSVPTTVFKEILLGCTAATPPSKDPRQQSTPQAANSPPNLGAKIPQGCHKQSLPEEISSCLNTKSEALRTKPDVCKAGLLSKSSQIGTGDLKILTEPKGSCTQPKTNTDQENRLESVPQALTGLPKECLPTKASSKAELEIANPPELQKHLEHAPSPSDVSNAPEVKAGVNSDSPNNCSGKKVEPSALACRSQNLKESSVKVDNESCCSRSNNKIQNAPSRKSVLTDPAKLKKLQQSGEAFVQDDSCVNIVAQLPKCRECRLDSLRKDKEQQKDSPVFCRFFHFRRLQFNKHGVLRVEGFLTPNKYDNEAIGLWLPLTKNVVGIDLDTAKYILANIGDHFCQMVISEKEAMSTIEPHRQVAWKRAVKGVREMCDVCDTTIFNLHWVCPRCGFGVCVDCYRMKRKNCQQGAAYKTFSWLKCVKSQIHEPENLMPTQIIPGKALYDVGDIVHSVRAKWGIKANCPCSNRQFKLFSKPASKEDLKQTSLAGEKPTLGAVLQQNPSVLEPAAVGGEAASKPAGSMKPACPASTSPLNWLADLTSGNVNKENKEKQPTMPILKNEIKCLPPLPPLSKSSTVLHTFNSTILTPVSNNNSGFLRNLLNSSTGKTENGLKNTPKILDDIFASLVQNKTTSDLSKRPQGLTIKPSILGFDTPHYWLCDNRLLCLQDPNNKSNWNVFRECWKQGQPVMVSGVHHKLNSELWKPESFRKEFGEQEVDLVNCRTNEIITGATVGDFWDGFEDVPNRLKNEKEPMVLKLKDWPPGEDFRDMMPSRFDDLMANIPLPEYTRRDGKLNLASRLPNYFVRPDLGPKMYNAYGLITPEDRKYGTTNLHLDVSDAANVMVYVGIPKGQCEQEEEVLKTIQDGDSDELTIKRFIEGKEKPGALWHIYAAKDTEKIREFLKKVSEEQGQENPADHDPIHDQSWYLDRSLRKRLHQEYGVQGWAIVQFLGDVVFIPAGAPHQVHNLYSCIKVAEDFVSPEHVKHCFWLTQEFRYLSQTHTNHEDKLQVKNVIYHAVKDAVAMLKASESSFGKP

The target of the test is KDM3A (Homo sapiens, UniProt Q9Y4C1). Description: KDM3 AlphaScreen assay (Table 2, ASSAY 9). It counts as biochemical.

Each structure is given as a SMILES string.

In turn, `CN(C)c1ccc(-c2ccc(OC3CCN(C(=O)c4ccccc4OC(=O)c4ccccc4OC(=O)N4CCOCC4)CC3)nc2)cc1` had a 50% inhibitory concentration (IC50) of 24.3 µM.
